PubChem BioAssay AID571 (The Scripps Research Institute Molecular Screening Center, 2007)
Only a part is listed here, and it is no random draw. Calls of active or inactive are those of the source.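 Rule for the calls: active = inhibition above a set limit, the mean inhibition across every tested compound plus 3 SD (cut at about 29% in these data); inactive = the rest.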

The chains behind the UniProt entries cited, without tags or fusion partners. Where a name states a change or a piece, a line headed by the entry shows the natural chain unless it says otherwise.
UniProt P28566: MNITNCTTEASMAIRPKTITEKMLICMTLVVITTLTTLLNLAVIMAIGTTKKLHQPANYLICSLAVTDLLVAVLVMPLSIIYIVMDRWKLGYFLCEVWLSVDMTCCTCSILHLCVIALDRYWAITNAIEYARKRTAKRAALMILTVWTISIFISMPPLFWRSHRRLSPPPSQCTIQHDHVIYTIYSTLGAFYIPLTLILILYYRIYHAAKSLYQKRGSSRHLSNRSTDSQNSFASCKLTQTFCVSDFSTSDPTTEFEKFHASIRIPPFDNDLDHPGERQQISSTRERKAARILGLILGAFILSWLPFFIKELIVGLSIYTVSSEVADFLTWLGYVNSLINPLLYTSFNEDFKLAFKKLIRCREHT

Each molecule was assayed against 5-hydroxytryptamine receptor 1E (Homo sapiens) (UniProt P28566) (assay: 5-HT1E receptor antagonists, primary screen, cell-based, HTS (AID 571;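 note: signal is the 460 over 535 nm emission ratio of beta-lactamase substrate; 0% = agonist plus DMSO wells and 100% = wells without agonist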)). Details: CHO 5-HT1E Ga15 NFAT-bla reporter, FRET, antagonist; at 6 µM; stronger effect = higher value.

Structure (SMILES)	inhibition
O=C(COc1ccccc1)OC1CN2CCC1CC2 (stereo not given)	inactive: 3.86%
COP1(=S)c2c(C)nn(CCC#N)c2N=C(c2ccc(F)cc2)N1C (stereo not given)	inactive: 8.68%
O=C(OC1CN2CCC1CC2)C12CC3CC(CC(C3)C1)C2 (stereo not given)	inactive: -0.66%
CCOP1(=S)c2c(C)nn(CCC#N)c2N=C(c2ccc(F)cc2)N1C (stereo not given)	inactive: 8.41%
CCOP1(=S)c2c(C)nn(CCC#N)c2N=C(c2ccccc2F)N1C (stereo not given)	inactive: -17.2%
O=P(Nc1nccs1)(c1ccccc1)c1nc2ccccc2s1 (stereo not given)	active: 30.7%
Cc1cccc(OCC(=O)OC2CN3CCC2CC3)c1 (stereo not given)	inactive: -8.51%
Clc1n[nH]nc1-c1nn[nH][15n]1	inactive: -3.65%
O=P1(Nc2ccccn2)COc2ccccc2OC1	inactive: -2.98%
Cc1ccc(OCC(=O)OC2CN3CCC2CC3)cc1 (stereo not given)	inactive: -17.4%
O=P1(Nc2ccc(Br)cn2)COc2ccccc2OC1	inactive: 0.02%
O=P1(Nc2ncccn2)COc2ccccc2OC1	inactive: 5.15%
Cc1nn(-c2ccccc2)c2c1P(=O)(N1CCOCC1)N(C)C(c1ccccc1)=N2 (stereo not given)	inactive: -5.53%
O=C(OC1CN2CCC1CC2)c1cccc(Cl)c1 (stereo not given)	inactive: 0.93%
c1nnnn1CCn1cnnn1	inactive: -6.17%
O=P(Nc1nccs1)(c1ccccc1)c1ccccc1	inactive: -0.18%
O=P1(Nc2nc3ccc(Cl)cc3s2)COc2ccccc2O1 (stereo not given)	inactive: 18.1%
COC(=O)c1cc2c(s1)N=C(c1ccccc1)N(C)P2(=O)N1CCOCC1 (stereo not given)	inactive: -7.04%
Cc1c2non([O-])c-2c(C)[n+](=O)[n+]1[O-]	inactive: 1.7%
CCc1nc2c(n1)c1c(non1O)c1c2no[n+]1[O-]	active: 52.5%
